Literature values, collected in article PMC6261293 (European journal of medicinal chemistry, 2018).

By UniProt entry, the sequences of proteins in these tests, tags left out. Where a name states a change or a piece, a line headed by the entry shows the natural chain unless it says otherwise.
UniProt P45983: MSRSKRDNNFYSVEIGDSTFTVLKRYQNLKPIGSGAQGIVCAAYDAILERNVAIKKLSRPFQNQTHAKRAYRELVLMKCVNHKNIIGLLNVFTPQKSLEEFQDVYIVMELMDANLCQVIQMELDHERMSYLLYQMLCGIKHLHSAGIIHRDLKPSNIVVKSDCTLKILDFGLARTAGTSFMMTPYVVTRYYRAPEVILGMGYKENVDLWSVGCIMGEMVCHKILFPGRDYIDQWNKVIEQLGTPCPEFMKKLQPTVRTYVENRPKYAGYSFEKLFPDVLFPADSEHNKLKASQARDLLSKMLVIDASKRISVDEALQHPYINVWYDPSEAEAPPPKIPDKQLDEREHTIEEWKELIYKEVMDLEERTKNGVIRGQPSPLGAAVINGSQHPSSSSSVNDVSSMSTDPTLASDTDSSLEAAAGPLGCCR
UniProt P53779: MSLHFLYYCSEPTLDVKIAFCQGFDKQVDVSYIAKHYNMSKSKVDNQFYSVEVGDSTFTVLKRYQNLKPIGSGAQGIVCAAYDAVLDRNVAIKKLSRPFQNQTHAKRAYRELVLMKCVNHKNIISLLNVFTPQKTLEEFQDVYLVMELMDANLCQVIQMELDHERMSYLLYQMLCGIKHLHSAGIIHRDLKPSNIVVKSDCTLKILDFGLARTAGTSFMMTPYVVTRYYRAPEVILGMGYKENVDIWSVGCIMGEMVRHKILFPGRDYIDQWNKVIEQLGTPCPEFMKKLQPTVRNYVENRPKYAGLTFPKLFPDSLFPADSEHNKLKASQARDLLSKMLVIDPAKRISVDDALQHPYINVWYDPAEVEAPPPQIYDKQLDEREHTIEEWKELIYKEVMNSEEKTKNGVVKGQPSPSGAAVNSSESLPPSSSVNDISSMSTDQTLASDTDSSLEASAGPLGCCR

Key:
JNK1 = JNK1 (Homo sapiens, UniProt P45983); conditions: read-out: JNK1 Kd; known JNK inhibitors; ref [29]; cited from earlier work
JNK3 = JNK3 (Homo sapiens, UniProt P53779); conditions: read-out: JNK3 Kd; known JNK inhibitors; ref [29]; cited from earlier work

For “anthra[1–9-cd]pyrazol-6(2H)-one [SP600125]”, the Kd (JNK1) is given as 100 ± 43 nM and the Kd (JNK3) is given as 22 ± 9 nM.
